This note sets out measurements from patent US20130330358A1, “CRYSTAL STRUCTURE AND PEPTIDE INHIBITORS OF HAUSP DEUBIQUITINASE” (priority 2011, published 2013).

The target of this experiment is HAUSP TRAF domain (HAUSP^62-205) (human). Kind of experiment: ITC, titration against HAUSP TRAF domain, 20 °C. Background: ITC needs no label: the signal is the heat of the interaction.

B1: vIRF4^209-216 peptide (peptide)
peptide: EGASTSGM
modifications: not checked
In turn, B1 registered an equilibrium dissociation constant (Kd) of 9.57 µM.

In general, Kd refers to the free concentration of one partner at which half of the binding sites on the other are occupied at equilibrium, for simple one-to-one binding. Read a low Kd as tighter binding.
